Holding throughout (assay): cell-based or functional assay
The target of assay [1] is AIR DNase: plant recombinant human DNase I modified by amidation with ethylene diamine and 60 equivalents of CMC (human) (UniProt P24855).
The target of assay [2] is L171(1): Tris-modified DNase I (human) (UniProt P24855).
For assay [3], the target named is L171(2): ammonia-modified DNase I (human) (UniProt P24855).
For assay [4], the target named is L172: ethanolamine-modified DNase I (human) (UniProt P24855).
The target of assay [5] is Pulmozyme DNase I (dornase alfa) (human) (UniProt P24855).
The target in assay [6] is Y24(2): DNase I modified by amidation with ethylene diamine using 50 equivalents of EDC (human) (UniProt P24855).
For assay [7], the target named is Y24(3): DNase I modified by amidation with ethylene diamine using 100 equivalents of EDC (human) (UniProt P24855).
Assay [8] addresses Y24(6): DNase I modified by amidation with hexamethylene diamine using 100 equivalents of EDC (human) (UniProt P24855).
Assay [9] has as its target plant recombinant human DNase I (human) (UniProt P24855).
The target is the same in assay [10]. The source holds these as a separate data set.
The target of assay [11] is Pulmozyme DNase I (dornase alfa) (human) (UniProt P24855). The source holds these as a separate data set.
The target in assay [12] is plant recombinant human DNase I (human) (UniProt P24855). The source holds these as a separate data set.

Where “and” joins values, the source holds several entries; their conditions need not be identical. Equal values may be shown once. Read-outs that look alike come from different tables or passages of the source.

Turning to “human non-muscle actin (from UniProt P60709 2-375)”, in assay [1], the inhibition of DNase activity at actin concentrations of about 2 µg/ml or less was less than 10%. In addition, the inhibition of DNase activity at the highest actin concentration tested (50 µg/ml) in assay [1] is less than 13%; in assay [2] it was less than 20%; in assay [3], less than 20%; in [4], less than 20%. Also, the IC50 for actin inhibition of DNase I activity (methyl green DNA hydrolysis assay) turned out to be 0.19 µg/mL in [5], 0.46 µg/mL in assay [9] and 0.89 µg/mL in [10]. Besides, in assay [5], the IC50 for inhibition of DNase I activity by actin (methyl green DNA hydrolysis assay, 45 ng/ml DNase I) came out at 0.23 µg/mL. Besides, the inhibition of DNase activity at the highest actin concentration tested (100 µg/ml) in assay [6], in [7] and in assay [8] was less than 80% in each case. Besides, the IC50 for inhibition of DNase I activity by actin (methyl green DNA hydrolysis assay) is 0.75 µg/mL and 0.777 µg/mL in [9]; 0.2 µg/mL in [11]; 0.47 µg/mL in [12].

(Values after patent US20180112201A1.)
